Values joined by “and” are separate entries in the source; they are usually repeats but may differ in a detail not shown here. Equal entries are not always repeated.
Molecular target: Mu-type opioid receptor (Bos taurus, UniProt P79350)

Amino acid sequences for entries named in this document (tags omitted).
UniProt P79350, whole entry: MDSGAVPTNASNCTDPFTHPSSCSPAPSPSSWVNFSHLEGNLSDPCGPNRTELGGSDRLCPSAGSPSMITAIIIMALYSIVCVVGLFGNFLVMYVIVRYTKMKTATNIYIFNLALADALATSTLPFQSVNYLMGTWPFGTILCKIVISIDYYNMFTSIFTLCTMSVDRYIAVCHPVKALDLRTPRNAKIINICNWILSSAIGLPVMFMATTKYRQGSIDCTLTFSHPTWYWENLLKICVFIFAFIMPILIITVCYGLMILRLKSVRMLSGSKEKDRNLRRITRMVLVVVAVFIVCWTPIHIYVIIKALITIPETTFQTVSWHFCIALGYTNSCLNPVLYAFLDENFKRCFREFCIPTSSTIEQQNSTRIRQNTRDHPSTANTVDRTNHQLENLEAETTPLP

With `CN1CC[C@]23c4c5ccc(O)c4O[C@H]2[C@@H](O)CCC3[C@H]1C5` (stereo partly specified) [DIHYDROMORPHINE] the Ki was 1.7 nM and 13.2 nM.
